Source: US20250171420A1 (Monte Rosa Therapeutics, Inc., priority 2022, published 2025)

Chains of the proteins cited; added tags and fusions are not shown. Residues count along the entry.
UniProt P48729, whole entry: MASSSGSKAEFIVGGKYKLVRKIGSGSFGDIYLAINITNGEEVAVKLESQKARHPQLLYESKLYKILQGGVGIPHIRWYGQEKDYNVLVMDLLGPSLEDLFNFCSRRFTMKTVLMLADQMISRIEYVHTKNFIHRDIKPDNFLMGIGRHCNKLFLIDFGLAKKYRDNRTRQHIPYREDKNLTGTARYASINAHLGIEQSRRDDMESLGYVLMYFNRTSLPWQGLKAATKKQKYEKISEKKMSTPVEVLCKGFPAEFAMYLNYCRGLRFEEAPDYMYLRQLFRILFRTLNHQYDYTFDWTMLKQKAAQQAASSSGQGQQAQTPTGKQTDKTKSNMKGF
UniProt Q96SW2, whole entry: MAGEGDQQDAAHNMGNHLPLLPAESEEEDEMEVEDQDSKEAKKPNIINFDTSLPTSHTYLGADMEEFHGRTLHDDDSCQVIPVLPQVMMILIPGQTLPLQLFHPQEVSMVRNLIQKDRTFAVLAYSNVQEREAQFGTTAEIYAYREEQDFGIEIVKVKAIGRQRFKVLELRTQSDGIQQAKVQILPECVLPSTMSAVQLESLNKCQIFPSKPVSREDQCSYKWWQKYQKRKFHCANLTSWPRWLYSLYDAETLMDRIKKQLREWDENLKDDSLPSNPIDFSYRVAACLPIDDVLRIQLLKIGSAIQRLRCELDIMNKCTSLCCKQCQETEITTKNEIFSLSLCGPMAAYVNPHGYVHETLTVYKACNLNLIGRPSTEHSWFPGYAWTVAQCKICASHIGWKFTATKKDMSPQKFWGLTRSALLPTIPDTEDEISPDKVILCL
UniProt Q16531, 2-1140 partner limits assumed: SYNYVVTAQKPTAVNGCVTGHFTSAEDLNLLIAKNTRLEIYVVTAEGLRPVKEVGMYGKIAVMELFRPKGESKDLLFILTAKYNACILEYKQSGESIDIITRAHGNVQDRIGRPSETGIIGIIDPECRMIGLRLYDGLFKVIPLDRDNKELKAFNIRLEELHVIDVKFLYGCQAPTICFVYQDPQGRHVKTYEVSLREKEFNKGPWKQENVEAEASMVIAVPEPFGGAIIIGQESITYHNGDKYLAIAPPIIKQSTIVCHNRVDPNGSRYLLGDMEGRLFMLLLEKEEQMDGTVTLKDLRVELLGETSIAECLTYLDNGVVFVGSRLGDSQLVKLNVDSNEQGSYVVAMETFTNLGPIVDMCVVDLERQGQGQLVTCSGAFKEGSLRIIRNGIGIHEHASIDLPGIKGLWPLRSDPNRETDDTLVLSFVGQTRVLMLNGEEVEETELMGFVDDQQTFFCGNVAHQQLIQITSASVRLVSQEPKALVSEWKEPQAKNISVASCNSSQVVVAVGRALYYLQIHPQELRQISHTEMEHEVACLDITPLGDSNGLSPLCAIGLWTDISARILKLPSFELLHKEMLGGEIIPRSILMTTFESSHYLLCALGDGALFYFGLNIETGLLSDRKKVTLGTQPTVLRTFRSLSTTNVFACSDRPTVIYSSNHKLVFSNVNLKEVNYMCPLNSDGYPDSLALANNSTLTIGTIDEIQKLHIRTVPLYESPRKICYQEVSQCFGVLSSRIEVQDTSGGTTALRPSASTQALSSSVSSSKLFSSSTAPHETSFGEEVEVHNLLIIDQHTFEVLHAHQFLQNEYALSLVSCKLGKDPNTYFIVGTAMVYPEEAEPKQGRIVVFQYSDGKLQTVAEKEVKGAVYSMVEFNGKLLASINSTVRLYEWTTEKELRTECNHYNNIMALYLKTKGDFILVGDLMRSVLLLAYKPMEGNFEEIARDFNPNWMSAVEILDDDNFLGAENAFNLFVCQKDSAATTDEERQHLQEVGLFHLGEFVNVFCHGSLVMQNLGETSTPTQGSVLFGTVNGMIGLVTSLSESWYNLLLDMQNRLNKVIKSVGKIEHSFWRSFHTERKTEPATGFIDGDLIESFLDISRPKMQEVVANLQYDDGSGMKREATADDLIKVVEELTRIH
UniProt Q16531, whole entry partner: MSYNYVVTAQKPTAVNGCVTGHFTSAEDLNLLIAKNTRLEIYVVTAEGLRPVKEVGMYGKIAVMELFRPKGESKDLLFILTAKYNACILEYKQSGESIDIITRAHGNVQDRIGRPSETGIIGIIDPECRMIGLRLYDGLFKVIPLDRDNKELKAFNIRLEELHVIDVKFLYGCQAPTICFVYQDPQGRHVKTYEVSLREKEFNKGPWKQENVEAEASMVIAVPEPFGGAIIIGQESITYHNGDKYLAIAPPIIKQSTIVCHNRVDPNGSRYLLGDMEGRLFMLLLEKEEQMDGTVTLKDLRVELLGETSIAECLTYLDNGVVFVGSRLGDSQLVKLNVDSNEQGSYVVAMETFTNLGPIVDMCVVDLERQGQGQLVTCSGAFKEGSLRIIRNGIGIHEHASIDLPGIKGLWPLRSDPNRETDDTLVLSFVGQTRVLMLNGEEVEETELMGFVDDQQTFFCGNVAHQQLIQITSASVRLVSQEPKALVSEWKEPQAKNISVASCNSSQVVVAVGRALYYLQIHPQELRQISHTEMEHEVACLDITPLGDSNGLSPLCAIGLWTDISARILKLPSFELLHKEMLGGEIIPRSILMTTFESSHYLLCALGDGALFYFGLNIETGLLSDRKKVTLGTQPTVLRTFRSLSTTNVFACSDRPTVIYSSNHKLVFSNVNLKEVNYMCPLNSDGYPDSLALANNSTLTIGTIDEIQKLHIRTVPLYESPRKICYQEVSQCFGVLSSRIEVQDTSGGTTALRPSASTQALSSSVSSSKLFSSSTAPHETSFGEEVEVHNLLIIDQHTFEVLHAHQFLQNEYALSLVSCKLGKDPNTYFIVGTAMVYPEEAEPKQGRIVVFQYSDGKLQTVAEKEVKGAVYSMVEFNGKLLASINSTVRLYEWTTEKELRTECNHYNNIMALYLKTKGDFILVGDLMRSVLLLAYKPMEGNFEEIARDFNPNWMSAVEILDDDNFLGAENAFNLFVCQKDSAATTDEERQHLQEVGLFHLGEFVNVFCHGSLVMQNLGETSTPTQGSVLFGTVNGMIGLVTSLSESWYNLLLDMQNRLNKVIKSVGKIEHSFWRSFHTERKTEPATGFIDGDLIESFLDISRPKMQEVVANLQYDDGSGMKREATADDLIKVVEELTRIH

Key:
CK1α = CK1α (Homo sapiens, UniProt P48729+Q96SW2); assay: CK1α NanoBit Assay (HiBiT-tagged CSNK1A1, HEK293 clonal lines); conditions: read-out: CK1α DC50 (μM) 24 h; HEK293 HiBiT-CSNK1A1/LgBiT cells, 24 h incubation
CRBN/DDB1 = CRBN/DDB1 (Homo sapiens, UniProt Q96SW2); assay: HTRF binding assay (displacement of Cy5-thalidomide probe from CRBN/DDB1); conditions: read-out: HTRF_Thali_Disp_DR_geo_IC50; CRBN/DDB1 2.5 nM, Cy5-Thalidomide 100 nM, 30 min; geometric mean
Description: Binding of test compounds to CRBN/DDB1 was monitored in an HTRF assay using 1-[5-({2-[2-(2-{[2-(2,6-dioxopiperidin-3-yl)-1,3-dioxo-2,3-dihydro-1H-isoindol-4-yl]oxy}acetamido)ethoxy]ethyl}carbamoyl)pentyl]-3,3-dimethyl-2-[(1E,3E)-5-[(2E)-1,3,3-trimethyl-5-sulfo-2,3-dihydro-1H-indol-2-ylidene]penta-1,3-dien-1-yl]-3H-indol-1-ium-5-sulfonate as a fluorescent probe. In this assay, compounds displace the fluorescently labeled thalidomide-based probe bound to CRBN and fluorescence is monitored with increasing compound concentration. Assays were conducted in Greiner white 384 well HiBase plates (Cat. No 784075-25) in 10 μL total volume. A one pot detection solution of CRBN/DDB1 (2.5 nM), anti-His Terbium Cryptate Gold (1×, PerkinElmer Cat. #: 61HI2TLB), and Cy5-Thalidomide (100 nM, Tenova Cat.: T52461) was prepared in 20 mM HEPES, 20 mM NaCl, 0.2 mM TCEP, 0.2 mM EDTA, and 0.005% Tween20 was dispensed to each assay plate. Test compounds were stored in dry, ambient temperatures at 10 mM. A 10-point, 1:3 dilution series was prepared from 10 mM stock concentrations in Echo-compatible LDV plates. 10 nL of each compound dilution series was dispensed into assays wells using an Echo 650 (Labcyte inc. USA). 10 nL of 10 mM lenalidomide (Selleckchem Cat no. S1029) was transferred into the active-control wells for the assay and 10 nL of DMSO was transferred into the negative control wells. […]

SMILES | DC50 (CK1α) [µM] | IC50 (CRBN/DDB1) [µM]
O=C1CCC(N2Cc3cc(NC(=O)N4C5C=CC4c4ccccc45)ccc3C2=O)C(=O)N1 (stereo not shown) | > 1 | 
O=C1CCC(N2Cc3cc(NC(=O)N4C5CCC4c4ccccc45)ccc3C2=O)C(=O)N1 (stereo not shown) | > 1 | 
CCOC[C@@H]1Cc2c(F)cccc2N1C(=O)Nc1ccc2c(c1)CN(C1CCC(=O)NC1=O)C2=O (stereo partly shown) | < 0.1 | > 1
